# Apparent affinities of Ab-14 variants for a coronavirus HR2 peptide

Binding partner: SARS-CoV-2 spike HR2 peptide, sequence PDVDLGDISGINAS.

Ab-14 is the parent antibody, in scFv form: VH, then a (GGGGS)3 linker, then VL. The heavy chain is unchanged in all variants.
VH: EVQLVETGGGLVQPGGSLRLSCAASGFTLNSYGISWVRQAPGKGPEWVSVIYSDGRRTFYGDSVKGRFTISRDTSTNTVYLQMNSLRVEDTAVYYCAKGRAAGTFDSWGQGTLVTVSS
VL: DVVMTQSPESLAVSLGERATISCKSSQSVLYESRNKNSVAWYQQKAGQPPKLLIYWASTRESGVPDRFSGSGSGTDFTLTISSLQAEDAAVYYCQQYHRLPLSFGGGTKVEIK

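Designed CDR sequences, proposed from the first random library and measured here. Several design methods are mixed in this list. In AlphaSeq, yeast of one mating type display the scFv and yeast of the other type display the target. The frequency of each diploid, read from paired DNA barcodes, reflects how well the two displayed proteins bind. Read counts were normalised to the haploid input and turned into Kd by a linear fit to BCL2-family pairs of known affinity, for each replicate. Each pool was mated in six replicate cultures.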

Variants are written as CDR1, CDR2 and CDR3 of the light chain (limits as in the source). Parent: KSSQSVLYESRNKNSVA, WASTRES, QQYHRLPLS. The read-out is the apparent dissociation constant on a log10 scale (nM): the lower, the stronger. Averages over replicates are reported, and they cover detected replicates only. A pair that was not seen in any replicate is written "no signal"; this usually means weak binding, but a binder can also be missed. The range of this assay differs from that of the first round, and the authors advise against merging the two.

| CDR-L1 | CDR-L2 | CDR-L3 | log10 Kd (nM), mean | seen in |
|---|---|---|---|---|
| HIDILNRGETLKQDDIA | NADHREQ | QQYFHLPLA | 0.68 | 6/6 |
| KLSQSELYEERNKNSVA | NASTRES | QQYHRLPLS | -0.28 | 6/6 |
| KSSQSVCEESWNKNSVA | HASTRES | QQYHRNPLS | 1.79 | 6/6 |
| ILSDSVLMLSRNKNSVA | DNSTRES | QQYDRLPLS | 2.43 | 5/6 |
| KLRWDDMSHFNTRSAVA | DMTMRVH | QQYNRLPLD | 0.59 | 6/6 |
| TLSQSWGMESRHKNNVA | QESTREK | QQYFRLPIS | 1.61 | 6/6 |
| KSDISYLEESRNKNSVA | EASTRES | QQYHRLPLS | 0.34 | 6/6 |
| KLEQSWLYESRNKNSVA | NASTRMS | QQYHRLPLS | -0.20 | 6/6 |
| KNSQKVLYESRNKNSVA | WASTRES | QQYHRLPLD | no signal | 0/6 |
| RIQDHYAVGTMSGSSIA | EEATWMD | QQYSRLPLA | no signal | 0/6 |
| YSSQSVLPDSYNHNSVA | DASEREF | QQYHRLPLS | 0.80 | 6/6 |
| KLSQSVLYESRNKNNVA | HASTRCS | QQYHRLPLS | 0.52 | 6/6 |
| KLSQFYRMESRNKNSVA | DNSTRES | QDYDRLPLS | no signal | 0/6 |
| KSSQSVLYLSRNKNSVA | WASTRES | QQQHRLPLS | 4.09 | 1/6 |
| KSSQSVLYESRNKNSVA | WASTRES | QQYHPLPTS | no signal | 0/6 |
| KFSQWVLYEDRTKNSVA | NASTRES | QQYHRLPLS | 0.42 | 6/6 |
| KVSQMQPYEERNKNNVA | MASTRMS | QQYHRLPLS | -0.12 | 6/6 |
| KSSQSVLYESAPKNSVA | AASHRES | QQYHRLPLS | no signal | 0/6 |
| KQLQSVLYESRNKNSVA | HASTRED | QQYHQLPLS | 0.16 | 6/6 |
| GSSISYLYESRNKRSVA | EASQRES | QQYHRLPLS | 1.10 | 6/6 |
| KFSQSVLYESRMSNRVA | NASTRES | QQYHRLPLS | 0.23 | 6/6 |
| MISQLYNMGQFAINSVA | QASTRNE | QQYHRLPLM | 0.43 | 6/6 |
| MISDLTMNGSRNKNSVA | DLSTRGS | QQYHRLPLS | 0.11 | 6/6 |
| KFSQSVLYESRNKNSVA | EGSTRES | QQYHRLPLS | 0.01 | 6/6 |
| KISQLVNFQGKNKNSVA | QMSTRES | QQYDRLPLS | 0.06 | 6/6 |
| IVSQLMLWGMHVKNSIA | EASTRLN | QQYERLPLF | 0.87 | 6/6 |
| KISQSVLYESRNKNSVA | WASTREQ | QQYHRLPLS | 1.14 | 6/6 |
| QSSQSVLLESRLKNSVA | MASTRES | QQYHRLPLS | 2.81 | 3/6 |
| KLPQSVLYESRNKNAVA | NASTRES | QQYHRLPLS | -0.53 | 6/6 |

Continued, with the values leading:

| log10 Kd (nM), mean | seen in | CDR-L1 | CDR-L2 | CDR-L3 |
|---|---|---|---|---|
| 0.15 | 6/6 | KLQQSMLYESRNKNSVA | NASTRES | QQYHRLPLS |
| 0.69 | 6/6 | KSSQSVLYEGRNKASVA | SASTRES | QQYHRLPLS |
| -0.20 | 6/6 | KSSQSFCYESRNKNSVA | GASTRES | QQYHRLTLS |
| -0.30 | 6/6 | KQSQSVLYEGRNKNSVA | DASTRES | QQYHRLPLS |
| -0.29 | 6/6 | KLEQSITYESRNKNSVA | NASTRES | QQYHRLPLS |
| 0.51 | 6/6 | KSSQSVQYESRNANSVA | SASIRES | QQYHRLPLS |
| -0.15 | 6/6 | KLSQSQEYESRNSNAVA | NASQRLQ | QQYHRLPLS |
| no signal | 0/6 | KIYGYMGTITRQANSIA | DNTTREN | QQYNRLPLS |
| 2.26 | 4/6 | KQSQSVLYEEKNKNSVA | WASTRES | QQYHRLPLS |
| 0.23 | 6/6 | KLSIMGLHESIDKKSIA | ERSTREN | QQYHRLPLS |
| 2.52 | 6/6 | QITFKQQYDFGNTYNIA | DATYSGR | QQYSQLPLS |
| 1.55 | 2/6 | IVSQLMLWGMHVKNSIA | EAVTRLN | QQYDRLPLM |
| 0.15 | 6/6 | KLSNMYEYESRWKNSVA | NASTREL | QQYHRLPLS |
| 1.19 | 6/6 | MINQLYNMGSFAINSVA | QASERCN | QQYDRLPLM |
| -0.46 | 6/6 | KLSQSNGYEERNKNNVA | SASQREM | QQYHRLPLS |
| 0.29 | 6/6 | KLYVTTMLESHNKNSIA | DLSTRGN | QQYHRLPLS |
| 1.12 | 6/6 | MISQVMNTLTRIGNNVA | DLAEREQ | QQYFRLPLS |
| 0.35 | 6/6 | KMEQGVLYESRNKGSVA | NASVRES | QQYHRLPLS |
| 1.98 | 5/6 | ASSQSVLYESANKNSVA | DASTRES | QQYHWMPLS |
| 1.00 | 4/6 | KSSQSVSYGSRNKNSVA | WAATRES | MQYHRLPIS |
| 2.74 | 2/6 | KLLQAVVGETYNKNNVA | HNSTRED | QEYARLPLS |
| 0.15 | 6/6 | KISMLQRYEQQNKNSIA | EMSRREN | QQYHRLPLS |
| 0.08 | 6/6 | KISGYLQKESKNKNNVA | EMVNRES | QQYDRLPLS |
| 0.87 | 6/6 | TIGQTLMQGIRNRSNVA | EVSERLN | QQYDRLPLF |
| -0.35 | 6/6 | KLQMSMLYESRMHNSVA | DASVRES | QQYHRLPLS |
| 0.45 | 6/6 | KLTMITGTEKVRGNNVA | EMETREN | QQYNRLPLS |
| -0.26 | 6/6 | KLSQSDGYEQRNSNSVA | HASTRED | QQYHRLPLS |
| -0.26 | 6/6 | KLDPSDLGESRNKNSVA | HASTREI | QQYHQLPLS |
| 1.19 | 6/6 | KMSQSILYESRNKNSVA | WASTRES | QQYHRLPLS |

3 of these entries, quoted again:

| CDR-L1 | CDR-L2 | CDR-L3 | log10 Kd (nM), mean | seen in |
|---|---|---|---|---|
| KNSQKVLYESRNKNSVA | WASTRES | QQYHRLPLD | no signal | 0/6 |
| KMSQSILYESRNKNSVA | WASTRES | QQYHRLPLS | 1.19 | 6/6 |
| KISMLQRYEQQNKNSIA | EMSRREN | QQYHRLPLS | 0.15 | 6/6 |

The parent sequence was in this pool as ten entries: three were never detected, three once, and four in most replicates, with averages from 0.34 to 2.37. The authors' rule: three or more of the six replicates give a measured affinity, fewer mean a poor binder. Three control strains display no target. For all light chain designs, 4% of the pairings with them gave a signal, with a median of 2.64 and one signal in twenty below 1.59, so weak values seen in few replicates may be background.

Source: Li et al. 2023 (doi:10.1038/s41467-023-39022-2), MIT Lincoln Laboratory and A-Alpha Bio; data file from the FLAb repository.